For this data set the following is noted: pH 4.5.

Take “2-(3,5-dichlorophenyl)-1,3-benzoxazole-6-carboxylic acid mono (1-deoxy-1-methylamino-D-glucitol) [tafamidis meglumine]”: the Solubility entry is “poor solubility/insoluble”.

Source of the values: patent US20230149366A1, “SOLID DOSAGE FORMS OF TAFAMIDIS” (Nuray Chemicals Private Limited, priority 2021, published 2023).
